Data reported in patent publication US7005449B2, “Tolterodine salts” (Pharmacia & Upjohn Company, priority 2002, dated 2006).

Assay: Equilibrium solubility of tolterodine salts (shaking excess salt 24 hours, RP-HPLC)
Settings: for Equilibrium solubility in buffer: 0.1 M phosphate buffer pH 7.4, 24 hours; for Equilibrium solubility in buffer / Equilibrium solubility in water: room temperature; for final pH in buffer: final pH of the buffer solubility sample; for final pH in water: final pH of the water solubility sample; for Equilibrium solubility in water: 24 hours

Structure (SMILES)	Equilibrium solubility in buffer	final pH in buffer	final pH in water	Equilibrium solubility in water
Cc1ccc(O)c([C@H](CCN(C(C)C)C(C)C)c2ccccc2)c1.O=S(=O)(O)CCS(=O)(=O)O [Edisylate, tolterodine edisylate]	8400 µg/mL	7.3	3.7	7100 µg/mL
Cc1ccc(O)c([C@H](CCN(C(C)C)C(C)C)c2ccccc2)c1.Cl [HCl, reference compound]	7500 µg/mL	7.3	7.0	8700 µg/mL
Cc1ccc(O)c([C@H](CCN(C(C)C)C(C)C)c2ccccc2)c1.O=C(O)C(O)C(O)C(=O)O [tartrate, tolterodine tartrate, reference compound]	9800 µg/mL	4.4	3.6	11400 µg/mL
